# Ab-91 heavy chain CDR variants: yeast mating affinities

Values reported by Engelhart et al. 2022, doi:10.1038/s41597-022-01779-4 (FLAb copy).

Binding partner: SARS-CoV-2 spike HR2 peptide, sequence PDVDLGDISGINAS.

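The starting antibody came from a phage panning campaign against this peptide. In library AAYL51, one, two or three CDR residues were substituted; doubles and triples were drawn at random. Affinity was read by AlphaSeq, a pooled yeast mating assay with surface-displayed partners. Pairs that bind mate more often; barcode pairs of the diploids are counted by sequencing. The ratio of observed to expected reads was calibrated, replicate by replicate, on BCL2-family standards whose Kd was known from biolayer interferometry. The assay was run in three technical replicates.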

Each scFv is VL, a (GGGGS)3 linker, VH, as in the parent Ab-91, and differs from it in the CDRs of the heavy chain only.
VL: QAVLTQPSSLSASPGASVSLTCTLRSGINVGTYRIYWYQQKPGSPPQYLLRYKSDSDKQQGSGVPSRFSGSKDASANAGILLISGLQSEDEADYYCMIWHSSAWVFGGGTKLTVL
VH: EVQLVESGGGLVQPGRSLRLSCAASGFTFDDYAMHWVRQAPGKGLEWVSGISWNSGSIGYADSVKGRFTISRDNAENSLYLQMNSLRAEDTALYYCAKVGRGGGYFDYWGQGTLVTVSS

Sequences are complete VH domains.
Every variant below is changed at V99 of the VH (sequential numbering).
Kd is apparent (estimated from mating counts) and averaged on the log scale over replicates with a signal. Smaller is tighter.
"nd" means that the variant was in the library but no mating with the target was seen in any replicate; the authors take this as a sign of poor binding, and no number exists.
Parent in this assay: reference entry 72 nM, copy in this library 7.5 nM.
Empty control strains, which show no peptide, gave a signal in 21% of pairings with library AAYL51; the median was 34 µM and 95% of these signals were weaker than 1.8 µM. No background was subtracted. For each scFv, signals with the empty controls are counted beside the result.

Variant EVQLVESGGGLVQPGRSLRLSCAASAFTFDDYAMHWVRQAPGKGLEWVSGISCNSGSIGYADSVKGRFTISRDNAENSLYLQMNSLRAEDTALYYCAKAGRGGGYFDYWGQGTLVTVSS gave nd (0 of 3 replicates; controls 0 of 9).
Variant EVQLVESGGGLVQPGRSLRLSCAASGFTFDDYFMHWVRQAPGKGLEWVSGICWNSGSIGYADSVKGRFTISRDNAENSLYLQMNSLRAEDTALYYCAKTGRGGGYFDYWGQGTLVTVSS gave 34 µM (3 of 3 replicates; controls 7 of 9).
Variant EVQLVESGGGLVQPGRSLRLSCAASGFTFDDYAMHWVRQAPGKGLEWVSGISWNSGSITYADSVMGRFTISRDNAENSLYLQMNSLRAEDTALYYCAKLGRGGGYFDYWGQGTLVTVSS gave 8.9 µM (1 of 3 replicates; controls 2 of 9).
Variant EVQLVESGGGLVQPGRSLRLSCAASKFTFDDYAMHWVRQAPGKGLEWVSGISWNSGSIGYADSVKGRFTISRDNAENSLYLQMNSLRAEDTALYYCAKIGCGGGYFDYWGQGTLVTVSS gave 18 µM (1 of 3 replicates; controls 0 of 9).
Variant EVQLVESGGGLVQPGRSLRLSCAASHFTFDDYAMHWVRQAPGKGLEWVSGISLNSGSIGYADSVKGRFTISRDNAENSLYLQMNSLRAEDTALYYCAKDGRGGGYFDYWGQGTLVTVSS gave 4.9 µM (1 of 3 replicates; controls 2 of 9).
Variant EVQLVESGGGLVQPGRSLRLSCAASGFTFDDYAMHWVRQAPGKGLEWVSGISGNSGHIGYADSVKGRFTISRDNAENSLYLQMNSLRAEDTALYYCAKPGRGGGYFDYWGQGTLVTVSS gave 24 nM (3 of 3 replicates; controls 0 of 9).
Variant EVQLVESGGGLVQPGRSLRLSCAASGFTFDDYAMHWVRQAPGKGLEWVSGRSWNSGSIGYADSVKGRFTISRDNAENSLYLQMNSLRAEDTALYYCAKHGRGGGYFKYWGQGTLVTVSS gave nd (0 of 3 replicates; controls 0 of 9).
Variant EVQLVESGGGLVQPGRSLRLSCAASGVTFDDYAMHWVRQAPGKGLEWVSGISWNSGSIGYVDSVKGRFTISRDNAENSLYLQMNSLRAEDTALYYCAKFGRGGGYFDYWGQGTLVTVSS gave 20 µM (1 of 3 replicates; controls 2 of 9).
Variant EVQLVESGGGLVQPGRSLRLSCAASGFGFDDYAMHWVRQAPGKGLEWVSGISWNSGSIGYADFVKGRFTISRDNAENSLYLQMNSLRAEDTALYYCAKTGRGGGYFDYWGQGTLVTVSS gave nd (0 of 3 replicates; controls 0 of 9).
Variant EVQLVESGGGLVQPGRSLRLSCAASGFTFDDYAMHWVRQAPGKGLEWVSGISWNSGSIGYADSVKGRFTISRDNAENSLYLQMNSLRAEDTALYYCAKIGRGNGYFDIWGQGTLVTVSS gave 12 µM (1 of 3 replicates; controls 1 of 9).
Variant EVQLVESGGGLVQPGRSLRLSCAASGFTWDDYAMHWVRQAPGKGLEWVSGISWNSGSIGDADSVKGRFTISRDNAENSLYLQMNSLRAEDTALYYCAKKGRGGGYFDYWGQGTLVTVSS gave 54 µM (1 of 3 replicates; controls 2 of 9).
Variant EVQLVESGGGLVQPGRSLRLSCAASGFTFDDYAMHWVRQAPGKGLEWVSRISWNSGSIGYADSVKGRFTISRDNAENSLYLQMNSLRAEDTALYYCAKRGRGGGYFDPWGQGTLVTVSS gave 820 µM (1 of 3 replicates; controls 4 of 9).
Variant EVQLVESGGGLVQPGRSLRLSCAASGFTFYDYAMSWVRQAPGKGLEWVSGISWNSGSIGYADSVKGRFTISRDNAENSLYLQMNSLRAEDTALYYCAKFGRGGGYFDYWGQGTLVTVSS gave 420 µM (1 of 3 replicates; controls 1 of 9).
Variant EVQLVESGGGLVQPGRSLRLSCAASGFTFDDYAMSWVRQAPGKGLEWVSGISWNSGSIGYADSVKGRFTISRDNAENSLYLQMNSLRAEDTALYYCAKGGRGGGYFDYWGQGTLVTVSS gave 880 µM (1 of 3 replicates; controls 4 of 9).
Variant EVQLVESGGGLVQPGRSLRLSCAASGFTFDDYAMHWVRQAPGKGLEWVSGISWNHGSIGYADKVKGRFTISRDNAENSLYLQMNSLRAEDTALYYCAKRGRGGGYFDYWGQGTLVTVSS gave 16 µM (2 of 3 replicates; controls 1 of 9).
Variant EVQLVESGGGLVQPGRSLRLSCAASGFTFDDYAMHWVRQAPGKGLEWVSGISWNSGSIGYADSVSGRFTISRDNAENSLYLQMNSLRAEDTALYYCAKNGRGGGYFDPWGQGTLVTVSS gave 270 µM (2 of 3 replicates; controls 1 of 9).
Variant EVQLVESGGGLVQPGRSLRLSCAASKFTFDDYAMHWVRQAPGKGLEWVSGISWNSGWIGYADSVKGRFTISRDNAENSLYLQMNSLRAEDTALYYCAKCGRGGGYFDYWGQGTLVTVSS gave nd (0 of 3 replicates; controls 0 of 9).
Variant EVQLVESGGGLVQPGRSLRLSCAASGFTFDDYAMHWVRQAPGKGLEWVSGITWNSQSIGYADSVKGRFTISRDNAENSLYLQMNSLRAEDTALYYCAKYGRGGGYFDYWGQGTLVTVSS gave nd (0 of 3 replicates; controls 2 of 9).
Variant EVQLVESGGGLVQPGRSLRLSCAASGFTFMDYAMHWVRQAPGKGLEWVSGISWQSGSIGYADSVKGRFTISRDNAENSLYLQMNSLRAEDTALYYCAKDGRGGGYFDYWGQGTLVTVSS gave nd (0 of 3 replicates; controls 1 of 9).
Variant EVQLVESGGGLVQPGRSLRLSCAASGFTFDDYPMHWVRQAPGKGLEWVSGISWNSGMIGYADSVKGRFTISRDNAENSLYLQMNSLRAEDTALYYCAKFGRGGGYFDYWGQGTLVTVSS gave 300 nM (3 of 3 replicates; controls 7 of 9).
Variant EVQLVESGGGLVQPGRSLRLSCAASGFTFDDYAPHWVRQAPGKGLEWVSGISWNSGSIGYADSVKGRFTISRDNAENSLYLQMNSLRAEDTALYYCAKGGRGGGYFDYWGQGTLVTVSS gave nd (0 of 3 replicates; controls 1 of 9).
Variant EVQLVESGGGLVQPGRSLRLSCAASGHTFDDYAMHWVRQAPGKGLEWVSGISWNSGSIGYADSVKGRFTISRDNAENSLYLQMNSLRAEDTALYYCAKYGRGGGYFSYWGQGTLVTVSS gave nd (0 of 3 replicates; controls 0 of 9).

The 3 strongest on average among those seen in every replicate, once more:

For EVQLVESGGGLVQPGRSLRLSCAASGFTFDDYAMHWVRQAPGKGLEWVSGISGNSGHIGYADSVKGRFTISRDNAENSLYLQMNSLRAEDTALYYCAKPGRGGGYFDYWGQGTLVTVSS, the assay gave 24 nM (3 of 3 replicates; controls 0 of 9).
For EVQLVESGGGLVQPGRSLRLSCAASGFTFDDYPMHWVRQAPGKGLEWVSGISWNSGMIGYADSVKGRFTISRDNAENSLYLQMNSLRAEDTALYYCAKFGRGGGYFDYWGQGTLVTVSS, the assay gave 300 nM (3 of 3 replicates; controls 7 of 9).
For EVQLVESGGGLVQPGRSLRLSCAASGFTFDDYFMHWVRQAPGKGLEWVSGICWNSGSIGYADSVKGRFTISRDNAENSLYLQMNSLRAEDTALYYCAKTGRGGGYFDYWGQGTLVTVSS, the assay gave 34 µM (3 of 3 replicates; controls 7 of 9).